The record followed here is ChEMBL document CHEMBL3992551, “Synthesis and evaluation of N-(benzofuran-5-yl)aromaticsulfonamide derivatives as novel HIF-1 inhibitors that possess anti-angiogenic potential” (Bioorg Med Chem, 2017).

By UniProt entry, the sequences of proteins in these tests, tags left out.
UniProt Q16665, whole entry, looked up: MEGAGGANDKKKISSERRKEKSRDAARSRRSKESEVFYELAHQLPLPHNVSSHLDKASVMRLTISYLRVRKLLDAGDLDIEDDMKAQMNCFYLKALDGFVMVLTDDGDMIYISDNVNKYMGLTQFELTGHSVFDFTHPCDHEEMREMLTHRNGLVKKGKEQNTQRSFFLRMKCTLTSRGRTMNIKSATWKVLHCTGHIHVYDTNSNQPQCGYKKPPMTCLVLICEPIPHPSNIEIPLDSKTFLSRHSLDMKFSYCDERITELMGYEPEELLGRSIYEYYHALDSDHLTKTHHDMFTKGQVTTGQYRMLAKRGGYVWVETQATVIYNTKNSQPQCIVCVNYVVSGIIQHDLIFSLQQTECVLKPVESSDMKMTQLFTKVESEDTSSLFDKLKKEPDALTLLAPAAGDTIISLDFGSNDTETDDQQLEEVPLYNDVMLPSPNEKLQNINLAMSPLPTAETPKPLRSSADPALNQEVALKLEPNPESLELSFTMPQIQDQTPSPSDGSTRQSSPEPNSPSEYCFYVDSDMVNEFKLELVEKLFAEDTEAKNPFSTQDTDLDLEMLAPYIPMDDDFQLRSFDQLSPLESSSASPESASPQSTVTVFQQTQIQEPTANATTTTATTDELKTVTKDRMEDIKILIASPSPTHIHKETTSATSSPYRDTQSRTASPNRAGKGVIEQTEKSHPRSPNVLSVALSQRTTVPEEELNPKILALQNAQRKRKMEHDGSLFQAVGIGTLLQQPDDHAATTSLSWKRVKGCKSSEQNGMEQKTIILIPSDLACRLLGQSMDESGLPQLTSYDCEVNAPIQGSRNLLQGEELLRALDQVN

One test has as its system MDA-MB-468. The experiment in a line: Antiproliferative activity against human MDA-MB-468 cells after 72 hrs under hypoxic condition by MTT assay. (In general: Tetrazolium assays rely on reduction of a dye to a coloured formazan, in cell work by metabolically active cells.)
The subject of the next test is MDA-MB-231. The experiment in a line: Antiproliferative activity against human MDA-MB-231 cells after 72 hrs under hypoxic condition by MTT assay.
The subject of the next test is MCF7. The experiment in a line: Antiproliferative activity against human MCF7 cells after 72 hrs under hypoxic condition by MTT assay.
In test [1] the target is Hypoxia-inducible factor 1-alpha (Homo sapiens, UniProt Q16665). In words: Inhibition of HIF-1alpha (unknown origin) transcriptional activity expressed in human MCF7 cells after 24 hrs under hypoxic condition by HRE luciferase reporter gene assay.

SMILES strings stand for the structures.

With `N[C@@H](Cc1ccc([N+]([O-])(CCCl)CCCl)cc1)C(=O)O`, the IC50 in the test on MDA-MB-468 was 45.1 µM; in the test with MDA-MB-231, 62.8 µM; in the test on MCF7, 19.7 µM; in test [1] it was 20.2 µM.

The IC50 is the midpoint of a concentration-inhibition curve. Read a high IC50 as weaker potency.
